Source: patent US20030175680A1, “Methods of treating and preventing bone loss” (priority 2002, published 2003)

Protein sequences, listed by entry. Tags and fused reporters are not part of them. Lines headed by an entry give the natural chain unless they say otherwise; changes in a name come on top.
UniProt P12530: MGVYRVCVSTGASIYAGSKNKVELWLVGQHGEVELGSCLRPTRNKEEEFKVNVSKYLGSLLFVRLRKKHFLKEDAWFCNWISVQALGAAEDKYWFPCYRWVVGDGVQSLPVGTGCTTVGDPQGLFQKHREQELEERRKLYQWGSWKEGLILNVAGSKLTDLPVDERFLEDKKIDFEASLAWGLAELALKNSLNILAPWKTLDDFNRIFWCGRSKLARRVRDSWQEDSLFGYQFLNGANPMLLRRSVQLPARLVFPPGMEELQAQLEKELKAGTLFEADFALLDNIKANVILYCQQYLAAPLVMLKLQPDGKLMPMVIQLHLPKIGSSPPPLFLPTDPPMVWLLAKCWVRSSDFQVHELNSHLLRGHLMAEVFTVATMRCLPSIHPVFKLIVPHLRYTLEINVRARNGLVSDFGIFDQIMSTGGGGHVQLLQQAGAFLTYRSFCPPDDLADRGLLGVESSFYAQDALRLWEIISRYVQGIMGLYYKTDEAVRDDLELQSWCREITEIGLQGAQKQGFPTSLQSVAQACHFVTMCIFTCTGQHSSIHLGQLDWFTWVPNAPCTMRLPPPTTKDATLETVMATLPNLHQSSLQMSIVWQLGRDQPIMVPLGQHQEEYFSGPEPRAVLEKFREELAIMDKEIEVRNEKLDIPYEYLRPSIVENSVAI

Target: 15-LO (UniProt P12530)
Assay type: biochemical
Conditions: read-out: IC50 for 15-LO
Description: IC50's may be determined by standard methods. One particular method is a colorimetric assay in which the putative inhibitor is pre-incubated with the 15-LO enzyme for about 10 minutes followed by addition of linoleic acid substrate for an additional 10 minutes. The product, 13-HPODE, is quantitated by coupling the reduction of the hydroperoxylated lipid to the oxidation on N-benzoyl-leucomethylene blue in the presence of hemin at pH 5. The absorbance of the oxidized methylene blue is directly proportional to the amount of 13-HPODE formed by the 15-LO, and can be measured in the presence and absence of inhibitor.

c1ccc2c(c1)SCc1c-2[nH]c2ccccc12 [Compound 2, 6,11-dihydro-5-thia-11-aza-benzo[a]fluorene]
pIC50: ~6.70

pIC50: −log10 of the molar value.
